The values that follow come from ChEMBL document CHEMBL4382201 (J Med Chem, 2018).

This assay deals with DNA. The experiment in a line: Induction of DNA cross-linking activity in human CLL-derived lymphocytes assessed as increase in gammaH2AX formation at 5 to 20 uM after 24 hrs by flow cytometry. It is filed as functional, cell-based. A general note: A flow cytometer gives signals particle by particle.

Active and inactive are the calls of the source. The rule behind the calls is not given here.

Regarding `Oc1ccc(N(CCCl)CCCl)cc1`, the outcome was Active.
